The target of the test is T1, PTP1B (Homo sapiens, UniProt P18031).
T1 sequence (P18031 1-435): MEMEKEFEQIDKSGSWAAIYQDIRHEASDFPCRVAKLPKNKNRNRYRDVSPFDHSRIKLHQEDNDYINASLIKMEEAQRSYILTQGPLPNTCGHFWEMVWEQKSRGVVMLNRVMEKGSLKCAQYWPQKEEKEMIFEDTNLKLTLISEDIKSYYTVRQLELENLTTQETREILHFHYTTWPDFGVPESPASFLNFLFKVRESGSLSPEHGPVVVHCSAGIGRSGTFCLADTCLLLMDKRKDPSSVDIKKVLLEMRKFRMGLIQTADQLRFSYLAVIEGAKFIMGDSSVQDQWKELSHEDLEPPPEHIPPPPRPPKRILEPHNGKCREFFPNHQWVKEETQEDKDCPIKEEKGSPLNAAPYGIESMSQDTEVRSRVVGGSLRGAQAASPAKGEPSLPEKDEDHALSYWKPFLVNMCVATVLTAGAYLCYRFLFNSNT
The experiment in a line: PTP1B inhibition assay (hydrolysis of p-nitrophenyl phosphate, 96-well plate). Conditions: read-out: PTP1B inhibitory activity IC50; in vitro; pNPP substrate; triplicate, three independent experiments.

By IC50 is commonly meant the point on the concentration scale where inhibition reaches its midpoint.

With Beauvericin [Compound 6], the half-inhibitory concentration (IC50) worked out at 590 ± 150 nM.

Values taken from paper PMC6149825, “PTP1B Inhibitors from the Entomogenous Fungi Isaria fumosorosea” (Molecules : A Journal of Synthetic Chemistry and Natural …, 2017).
